These results are taken from patent publication US8685963B2, “Compounds that inhibit NFκB and BACE1 activity” (The Trustees of Columbia University in the city of New York, priority 2008, dated 2014).

Protein sequences, listed by entry. Tags and fused reporters are not part of them. Residues count along the entry.
UniProt P56817, 46-501 limits assumed: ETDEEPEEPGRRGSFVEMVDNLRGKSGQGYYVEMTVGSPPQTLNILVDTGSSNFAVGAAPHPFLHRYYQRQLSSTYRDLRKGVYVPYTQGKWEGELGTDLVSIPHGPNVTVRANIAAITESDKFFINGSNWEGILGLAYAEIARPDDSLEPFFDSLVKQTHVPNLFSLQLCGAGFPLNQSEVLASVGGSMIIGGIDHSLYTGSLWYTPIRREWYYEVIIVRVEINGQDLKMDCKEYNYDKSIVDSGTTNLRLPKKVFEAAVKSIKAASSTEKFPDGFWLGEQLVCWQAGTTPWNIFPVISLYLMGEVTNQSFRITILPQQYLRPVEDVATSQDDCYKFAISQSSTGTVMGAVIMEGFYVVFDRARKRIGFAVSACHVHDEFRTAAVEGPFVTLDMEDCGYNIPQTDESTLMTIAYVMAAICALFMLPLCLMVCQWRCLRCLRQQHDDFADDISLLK

For this test, the target named is BACE1 (Homo sapiens, UniProt P56817). Put plainly: cell-based BACE1 assay (sAPPβ modified ELISA) in SY5Y-BACEGFP-SEAPAPPwt cells. On the procedure:
FIG. 8 depicts a sAPPβ assay utilized to identify inhibitors of BACE1. The assay utilizes SY5Y cells stably overexpressing BACE-GFP and SEAP-APPwt. Cells are incubated with a candidate compound for 6 hours prior to harvesting media. BACE1-mediated cleavage of APP results in the release of sAPPβ into the media. α-secretase, a competing enzyme that is non-amyloidogenic, also cleaves APP to release […]. Using an sAPPβ-specific antibody (sβwt), SEAP-sAPPβ is specifically captured in a modified ELISA assay. Detection is achieved by addition of the fluorescent alkaline phosphatase substrate, 4-methylumbelliferyl phosphate (4-MUP).
FIG. 10A-B depicts SAR studies of N-(quinolin-8-yl)benzenesulfonamides. 28 full and partial hits, shown in (A) for compounds 1-26 and (B) for compounds 27 and 28, from the targeted screen of N-(quinolin-8-yl)benzenesulfonamides were characterized in SY5Y-BACEGFP-SEAPAPPwt cells using the cell-based BACE1 assay. All compounds were tested at 8 concentrations (30, 10, 3, 1, 0.3, 0.1, 0.03, and 0.01 μM), and data points were analyzed with Origin software and fitted using a logistic model for IC50 determination.
A cell-based modified ELISA assay for measuring sAPPβ, the secreted ectodomain of β-amyloid precursor protein (APP) following […] (BACE1) cleavage, was used to identify a class of compounds that interfered with the first step of sAPPβ generation. […]

As for `O=S(=O)(Nc1cc(Br)cc2cccnc12)c1ccc2ccccc2c1`, the “potency for sAPPβ reduction (in words)” value is reported as “sub-micromolar”. Also, the half-maximal inhibitory concentration (IC50) (read-out: IC50 (sAPPβ), 8-point dose-response (30-0.01 μM)) stood at 790 nM.
